Patent publication US7438931B2, “Methods and compositions for the treatment of angiogenic diseases” (The Regents of The University of Michigan, priority 1998, dated 2008)

How the values were obtained:
metastatic solid tumors = experiment: Phase I trial: clinical and radiologic response of metastatic cancer; assay type: in vivo, human; conditions: TM plus IFN-α 500,000 units subcutaneously twice a day and radiotherapy
Text: Patients with effusions or bone marrow involvement as the only manifestations of disease, and those who had severe intercurrent illness requiring intensive management or were transfusion dependent, were excluded. […] Other requirements were demonstrable progression of disease in the previous 3 months, after standard treatments such as surgery, chemotherapy, radiotherapy, and/or immunotherapy, or progressive disease after declining conventional treatment modalities.
Six patients were to be enrolled at each dose level. After 4 patients were enrolled at level I, if one patient experienced dose-limiting toxicity (DLT) (defined as Hct<80% of baseline), 2 more patients were enrolled at level I. If no DLT was observed, patients were enrolled at the next dose level. […]
Extent of disease was evaluated at entry, at the point of achievement of copper deficiency, defined as Cp at or below 20% of baseline, and every 10-12 weeks thereafter. […]
Blood flow was measured by ultrasound in select patients with accessible lesions, at the time they became copper deficient, and at variable intervals of 8-16 weeks thereafter. […] The scanning and vascularity quantification techniques were as previously described (Carson et al., 1998; LeCarpentier et al., 1999).

Phase I trial: toxicity = assay type: in vivo, human; conditions: added modality during long-term TM
Text: Six patients were to be enrolled at each dose level. After 4 patients were enrolled at level I, if one patient experienced dose-limiting toxicity (DLT) (defined as Hct<80% of baseline), 2 more patients were enrolled at level I. If no DLT was observed, patients were enrolled at the next dose level. Treatment was allowed to continue beyond induction of target copper deficiency, if the patients experienced a partial or complete clinical response or achieved clinical stable disease by the following definitions. Complete response is defined as the disappearance of all clinical and laboratory signs and symptoms of active disease. Partial response is defined as a 50% or greater reduction in the size of measurable lesions defined by the sum of the products of the longest perpendicular diameters of the lesions, with no new lesions or lesions increasing in size. […]
Complete blood counts, liver and renal function tests, urinalyses, and Cp level (by the oxidase method) were performed weekly for 16 weeks, then bi-weekly. […] Toxicity was evaluated using the National Cancer Institute Common Toxicity Criteria (Table 3). […]

With “IFN-α: interferon-alpha 2 [reference compound]” the “duration of disease stabilization, two angiosarcoma patients” value (metastatic solid tumors) was “over 60 days” and the “toxicity of combination with TM” value (Phase I trial: toxicity) was “without apparent exacerbation of toxicity”.
